# From the supplement of paper PMC8728848
# This excerpt belongs to a sample that is enriched for the strongest signals.
# B1: Gal 7 (Mus musculus) (protein)
# chain: MSPILGYWKIKGLVQPTRLLLEYLEEKYEEHLYERDEGDKWRNKKFELGLEFPNLPYYIDGDVKLTQSMAIIRYIADKHNMLGGCPKERAEISMLEGAVLDIRYGVSRIAYSKDFETLKVDFLSKLPEMLKMFEDRLCHKTYLNGDHVTHPDFMLYDALDVVLYMDPMCLDAFPKLVCFKKRIEAIPQIDKYLKSSKYIAWPLQGWQATFGGGDHPPKSDLVPRGSMSATHHKTSLPQGVRVGTVMRIRGMVPDQAGRFHVNLLCGEEQGADAALHFNPRLDTSEVVFNTKEQGKWGREERGTGIPFERGQPFEVLLIATEEGFKAVVGDDEYLHFHHRMPPARVRLVEVGGDVQLHSLNIF
# Experiments:
# Assay in all cases: glycan array binding signal (z-score within array); higher = stronger binding
# Conditions in all cases: glycan notation: IUPAC condensed, linker removed
# [1] = molecular target: Gal(b1-4)GlcNAc(b1-3)Gal(b1-4)GlcNAc(b1-2)Man(a1-3)[Gal(b1-4)GlcNAc(b1-3)Gal(b1-4)GlcNAc(b1-2)Man(a1-6)]Man(b1-4)GlcNAc(b1-4)GlcNAc
# [2] = molecular target: Gal(b1-4)GlcNAc(b1-3)Gal(b1-4)GlcNAc(b1-2)Man(a1-3)[Gal(b1-4)GlcNAc(b1-3)Gal(b1-4)GlcNAc(b1-2)Man(a1-6)]Man(b1-4)GlcNAc(b1-4)[Fuc(a1-6)]GlcNAc
# [3] = molecular target: Gal(b1-4)GlcNAc(b1-3)Gal(b1-4)GlcNAc(b1-3)Gal(b1-4)GlcNAc(b1-3)Gal(b1-4)GlcNAc(b1-3)Gal(b1-4)GlcNAc(b1-2)Man(a1-3)[Gal(b1-4)GlcNAc(b1-3)Gal(b1-4)GlcNAc(b1-3)Gal(b1-4)GlcNAc(b1-3)Gal(b1-4)GlcNAc(b1-3)Gal(b1-4)GlcNAc(b1-2)Man(a1-6)]Man(b1-4)GlcNAc(b1-4)[Fuc(a1-6)]GlcNAc
# [4] = molecular target: Gal(b1-4)GlcNAc(b1-3)Gal(b1-4)GlcNAc(b1-3)Gal(b1-4)GlcNAc(b1-3)Gal(b1-4)GlcNAc(b1-3)Gal(b1-4)GlcNAc(b1-2)[Gal(b1-4)GlcNAc(b1-3)Gal(b1-4)GlcNAc(b1-3)Gal(b1-4)GlcNAc(b1-3)Gal(b1-4)GlcNAc(b1-3)Gal(b1-4)GlcNAc(b1-6)]Man(a1-6)[Gal(b1-4)GlcNAc(b1-3)Gal(b1-4)GlcNAc(b1-3)Gal(b1-4)GlcNAc(b1-3)Gal(b1-4)GlcNAc(b1-3)Gal(b1-4)GlcNAc(b1-2)Man(a1-3)]Man(b1-4)GlcNAc(b1-4)[Fuc(a1-6)]GlcNAc
# [5] = molecular target: Gal(b1-4)GlcNAc(b1-3)Gal(b1-4)GlcNAc(b1-3)Gal(b1-4)GlcNAc(b1-3)Gal(b1-4)GlcNAc(b1-3)Gal(b1-4)GlcNAc(b1-3)Gal(b1-4)GlcNAc(b1-2)Man(a1-3)[Gal(b1-4)GlcNAc(b1-3)Gal(b1-4)GlcNAc(b1-3)Gal(b1-4)GlcNAc(b1-3)Gal(b1-4)GlcNAc(b1-3)Gal(b1-4)GlcNAc(b1-3)Gal(b1-4)GlcNAc(b1-2)Man(a1-6)]Man(b1-4)GlcNAc(b1-4)GlcNAc
# [6] = molecular target: Gal(b1-4)GlcNAc(b1-3)Gal(b1-4)GlcNAc(b1-3)GalNAc
# [7] = molecular target: Gal(b1-4)GlcNAc(b1-3)Gal(b1-4)GlcNAc(b1-6)[Gal(b1-3)]GalNAc
# [8] = molecular target: Gal3S(b1-3)[Fuc(a1-4)]GlcNAc
# [9] = molecular target: GlcNAc(a1-4)Gal(b1-3)GlcNAc
# [10] = molecular target: GlcNAc(b1-2)[GlcNAc(b1-6)]Man(a1-6)[GlcNAc(b1-4)][GlcNAc(b1-2)Man(a1-3)]Man(b1-4)GlcNAc(b1-4)GlcNAc
# [11] = molecular target: GlcNAc(b1-3)Gal(b1-4)GlcNAc(b1-2)[GlcNAc(b1-3)Gal(b1-4)GlcNAc(b1-6)]Man(a1-6)[GlcNAc(b1-3)Gal(b1-4)GlcNAc(b1-2)Man(a1-3)]Man(b1-4)GlcNAc(b1-4)GlcNAc
# [12] = molecular target: GlcNAc(b1-3)Gal(b1-4)GlcNAc(b1-3)Gal(b1-4)GlcNAc(b1-3)Gal(b1-4)GlcNAc(b1-3)Gal(b1-4)GlcNAc(b1-2)Man(a1-3)[GlcNAc(b1-3)Gal(b1-4)GlcNAc(b1-3)Gal(b1-4)GlcNAc(b1-3)Gal(b1-4)GlcNAc(b1-3)Gal(b1-4)GlcNAc(b1-2)Man(a1-6)]Man(b1-4)GlcNAc(b1-4)[Fuc(a1-6)]GlcNAc
# [13] = molecular target: Man(a1-2)Man(a1-2)Man(a1-6)[Man(a1-3)]Man
# Man(a1-3)[Man(a1-6)]Man = molecular target: Man(a1-3)[Man(a1-6)]Man
# [14] = molecular target: Man(a1-3)[Man(a1-6)]Man(b1-4)GlcNAc(b1-4)[Fuc(a1-6)]GlcNAc
# [15] = molecular target: Neu5Ac(a2-3)Gal(b1-3)GalNAc(b1-4)[Neu5Ac(a2-3)]Gal(b1-4)Glc
# [16] = molecular target: Neu5Ac(a2-3)Gal(b1-3)GlcNAc(b1-3)Gal(b1-3)GlcNAc
# [17] = molecular target: Neu5Ac(a2-3)Gal(b1-4)GlcNAc(b1-2)Man(a1-3)[Neu5Ac(a2-3)Gal(b1-4)GlcNAc(b1-2)Man(a1-6)]Man(b1-4)GlcNAc(b1-4)GlcNAc
# [18] = molecular target: Neu5Ac(a2-3)Gal(b1-4)GlcNAc(b1-2)[Neu5Ac(a2-3)Gal(b1-4)GlcNAc(b1-6)]Man(a1-6)[Neu5Ac(a2-3)Gal(b1-4)GlcNAc(b1-2)Man(a1-3)][GlcNAc(b1-4)]Man(b1-4)GlcNAc(b1-4)GlcNAc
# [19] = molecular target: Neu5Ac(a2-3)Gal(b1-4)GlcNAc(b1-6)GalNAc
# [20] = molecular target: Neu5Ac(a2-3)[GalNAc(b1-4)]Gal(b1-4)GlcNAc(b1-3)GalNAc
# [21] = molecular target: Neu5Ac(a2-6)Gal(b1-4)GlcNAc(b1-2)[Neu5Ac(a2-6)Gal(b1-4)GlcNAc(b1-4)]Man(a1-3)[GlcNAc(b1-4)][Neu5Ac(a2-6)Gal(b1-4)GlcNAc(b1-2)[Neu5Ac(a2-6)Gal(b1-4)GlcNAc(b1-6)]Man(a1-6)]Man(b1-4)GlcNAc(b1-4)GlcNAc
# [22] = molecular target: Neu5Ac(a2-6)Gal(b1-4)GlcNAc(b1-2)[Neu5Ac(a2-6)Gal(b1-4)GlcNAc(b1-4)]Man(a1-3)[GlcNAc(b1-4)][Neu5Ac(a2-6)Gal(b1-4)GlcNAc(b1-4)Man(a1-6)]Man(b1-4)GlcNAc(b1-4)GlcNAc
# [23] = molecular target: Neu5Ac(a2-6)Gal(b1-4)GlcNAc(b1-2)[Neu5Ac(a2-6)Gal(b1-4)GlcNAc(b1-6)]Man(a1-6)[Neu5Ac(a2-6)Gal(b1-4)GlcNAc(b1-2)Man(a1-3)][GlcNAc(b1-4)]Man(b1-4)GlcNAc(b1-4)GlcNAc
# [24] = molecular target: Neu5Ac(a2-8)Neu5Ac(a2-3)Gal(b1-3)GalNAc(b1-4)[Neu5Ac(a2-8)Neu5Ac(a2-3)]Gal(b1-4)Glc
# Neu5Gc(a2-3)Gal(b1-4)Glc = molecular target: Neu5Gc(a2-3)Gal(b1-4)Glc
binder,measurement,setting,value
B1,glycan array binding signal (z-score),[1],0.489
same,glycan array binding signal (z-score),[2],1.06
same,glycan array binding signal (z-score),[3],2.7
same,glycan array binding signal (z-score),[4],4.22
same,glycan array binding signal (z-score),[5],2.7
same,glycan array binding signal (z-score),[6],0.003
same,glycan array binding signal (z-score),[7],0.039
same,glycan array binding signal (z-score),[8],-0.356
same,glycan array binding signal (z-score),[9],-0.372
same,glycan array binding signal (z-score),[10],-0.304
same,glycan array binding signal (z-score),[11],-0.242
same,glycan array binding signal (z-score),[12],0.643
same,glycan array binding signal (z-score),[13],-0.347
same,glycan array binding signal (z-score),Man(a1-3)[Man(a1-6)]Man,-0.302
same,glycan array binding signal (z-score),[14],-0.341
same,glycan array binding signal (z-score),[15],-0.321
same,glycan array binding signal (z-score),[16],0.779
same,glycan array binding signal (z-score),[17],-0.094
same,glycan array binding signal (z-score),[18],-0.077
same,glycan array binding signal (z-score),[19],-0.381
same,glycan array binding signal (z-score),[20],-0.2
same,glycan array binding signal (z-score),[21],-0.398
same,glycan array binding signal (z-score),[22],-0.344
same,glycan array binding signal (z-score),[23],-0.315
same,glycan array binding signal (z-score),[24],-0.31
same,glycan array binding signal (z-score),Neu5Gc(a2-3)Gal(b1-4)Glc,-0.307
